{"sequences": {"note": "Sequences of proteins named here, by UniProt entry; tags and fusion partners are left off.", "UniProt Q5PPG3, whole entry": "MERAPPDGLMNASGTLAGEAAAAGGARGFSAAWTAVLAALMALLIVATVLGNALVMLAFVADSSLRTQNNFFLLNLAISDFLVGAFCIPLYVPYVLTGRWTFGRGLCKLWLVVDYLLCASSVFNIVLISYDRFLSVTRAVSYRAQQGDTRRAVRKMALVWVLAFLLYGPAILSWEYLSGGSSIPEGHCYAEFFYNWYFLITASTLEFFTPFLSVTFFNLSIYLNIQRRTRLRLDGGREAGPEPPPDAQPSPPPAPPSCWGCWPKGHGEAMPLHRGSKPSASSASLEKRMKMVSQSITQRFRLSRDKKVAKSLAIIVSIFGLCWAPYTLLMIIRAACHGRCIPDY"}, "source": "BindingDB's records for PubMed 10869375", "about": "(R. W. Johnson Pharmaceutical Research Institute, 2000)", "target": "Hrh3 protein (Rattus norvegicus, UniProt Q5PPG3)", "note": "Several values for one entry are separate records, joined by “and”; a condition that tells them apart may be missing. Equal entries are not always repeated.", "data": [{"molecule": "NC(=NCc1ccc(Cl)cc1)SCCCc1cnc[nH]1", "note": "[VUF 9153]", "values": [{"measurement": "Ki", "value": "0.5 nM and 0.4 nM"}]}]}
